Results taken from ChEMBL document CHEMBL3352447, “Structural development studies of PPARs ligands based on tyrosine scaffold” (Eur J Med Chem, 2015).

Chains of the proteins cited; added tags and fusions are not shown. Lines headed by an entry give the natural chain unless they say otherwise; changes in a name come on top.
UniProt P37231: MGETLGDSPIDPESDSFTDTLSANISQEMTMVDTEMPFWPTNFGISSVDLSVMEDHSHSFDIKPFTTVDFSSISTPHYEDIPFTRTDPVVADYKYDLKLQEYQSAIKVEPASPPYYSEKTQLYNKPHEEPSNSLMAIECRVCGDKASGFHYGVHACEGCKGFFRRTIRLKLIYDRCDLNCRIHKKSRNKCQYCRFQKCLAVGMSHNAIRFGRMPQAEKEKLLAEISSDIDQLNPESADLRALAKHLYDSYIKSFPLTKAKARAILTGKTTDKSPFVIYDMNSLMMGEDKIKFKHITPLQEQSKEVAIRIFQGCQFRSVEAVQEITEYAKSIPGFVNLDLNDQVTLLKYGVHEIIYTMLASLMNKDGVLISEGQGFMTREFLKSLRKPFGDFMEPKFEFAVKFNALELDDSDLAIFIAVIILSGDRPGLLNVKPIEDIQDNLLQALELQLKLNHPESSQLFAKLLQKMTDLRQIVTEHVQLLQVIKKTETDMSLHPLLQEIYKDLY

What follows are compounds tested against T1, Peroxisome proliferator-activated receptor alpha (Homo sapiens) (UniProt Q07869) (assay: Agonist activity at human GAL4-PPARalpha ligand binding domain expressed in human HepG2 cells assessed as maximum fold induction by luciferase reporter gene assay relative to Wy-14643).
T1 sequence (whole entry): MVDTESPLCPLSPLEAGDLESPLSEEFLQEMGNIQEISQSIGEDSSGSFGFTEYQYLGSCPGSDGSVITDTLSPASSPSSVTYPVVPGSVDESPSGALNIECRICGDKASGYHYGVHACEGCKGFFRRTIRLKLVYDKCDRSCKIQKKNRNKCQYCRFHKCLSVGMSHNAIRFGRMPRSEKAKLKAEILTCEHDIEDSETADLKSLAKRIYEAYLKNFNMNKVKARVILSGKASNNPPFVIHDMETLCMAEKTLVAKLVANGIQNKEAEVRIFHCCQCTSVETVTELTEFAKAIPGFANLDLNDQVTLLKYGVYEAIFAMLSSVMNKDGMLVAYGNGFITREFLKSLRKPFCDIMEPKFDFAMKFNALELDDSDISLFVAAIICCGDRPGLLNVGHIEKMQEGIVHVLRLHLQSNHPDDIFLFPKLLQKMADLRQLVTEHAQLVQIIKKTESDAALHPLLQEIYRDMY
Format: cell-based
How it was run: (§1)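 HepG2 cells grown in MEM with 10% heat-inactivated FBS, penicillin/streptomycin, 37 °C, 5% CO2. 10^5 cells/well seeded, transfected after 24 h by calcium phosphate with Gal4-PPAR LBD expression plasmid (30 ng), pGal5TKpGL3 luciferase reporter (100 ng) and pCMVbgal (250 ng). Ligand added 4 h post-transfection for 20 h, in triplicate. Luciferase read in cell extracts, with β-galactosidase measured using ONPG.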

Emax, inactive:
C/C(=C\C(=O)c1ccccc1)NC(Cc1ccc(OCCOc2ccc(/N=N/c3ccccc3)cc2)cc1)C(=O)O (centres undefined), C/C(=C\C(=O)c1ccccc1)NC(Cc1ccc(OCCCOc2ccc(/N=N/c3ccc([N+](=O)[O-])cc3)cc2)cc1)C(=O)O (centres undefined), O=C(/C=C/c1ccccc1)NC(Cc1ccc(OCCOc2ccc(/C=C/c3ccccc3)cc2)cc1)C(=O)O (centres undefined), CC(=O)/C=C(\C)NC(Cc1ccc(OCCOc2ccc(/C=C/c3ccccc3)cc2)cc1)C(=O)O (centres undefined), C/C(=C\C(=O)c1ccccc1)NC(Cc1ccc(OCCCOc2ccc(/C=C/c3ccc(Cl)cc3)cc2)cc1)C(=O)O (centres undefined), C/C(=C\C(=O)c1ccccc1)NC(Cc1ccc(OCCCOc2ccc(/N=N/c3ccc(Cl)cc3)cc2)cc1)C(=O)O (centres undefined), C/C(=C\C(=O)c1ccccc1)NC(Cc1ccc(OCCCOc2ccc(/C=C/c3ccc(C(F)(F)F)cc3)cc2)cc1)C(=O)O (centres undefined), C/C(=C\C(=O)c1ccccc1)NC(Cc1ccc(OCCOc2ccc(/C=C/c3ccc(Cl)cc3)cc2)cc1)C(=O)O (centres undefined), C/C(=C\C(=O)c1ccccc1)NC(Cc1ccc(OCCOc2ccc(/C=C/c3ccc(C(F)(F)F)cc3)cc2)cc1)C(=O)O (centres undefined), COc1ccc(/N=N/c2ccc(OCCCOc3ccc(CC(N/C(C)=C/C(=O)c4ccccc4)C(=O)O)cc3)cc2)cc1 (centres undefined), CCCc1c(OCCCOc2ccc(OCC(=O)O)cc2)ccc(C(C)=O)c1O, C/C(=C\C(=O)c1ccccc1)NC(Cc1ccc(OCCOc2ccc(/C=C/c3ccc(C)cc3)cc2)cc1)C(=O)O (centres undefined), C/C(=C\C(=O)c1ccccc1)NC(Cc1ccc(OCCOc2ccc(/N=N/c3ccc(Cl)cc3)cc2)cc1)C(=O)O (centres undefined)

What follows are compounds tested against Peroxisome proliferator-activated receptor gamma (Homo sapiens, UniProt P37231) (assay: Agonist activity at human GAL4-PPARgamma ligand binding domain expressed in human HepG2 cells assessed as maximum fold induction by luciferase reporter gene assay relative to rosiglitazone).
Format: cell-based
How it was run: as §1

Emax, inactive:
CCCc1c(OCCCOc2ccc(OCC(=O)O)cc2)ccc(C(C)=O)c1O

Calls of active or inactive are those of the source. The calls are words filed in the database; no cut-off is given here.
